1 compound from ChEMBL document CHEMBL1134335, “Structure-activity relationships of pyridoxal phosphate derivatives as potent and selective antagonists of P2X1 receptors” (J Med Chem, 2001) can be followed below.

The assay addresses T1, P2X purinoceptor 3 (Rattus norvegicus, UniProt P49654).
T1 sequence (P49654 whole entry): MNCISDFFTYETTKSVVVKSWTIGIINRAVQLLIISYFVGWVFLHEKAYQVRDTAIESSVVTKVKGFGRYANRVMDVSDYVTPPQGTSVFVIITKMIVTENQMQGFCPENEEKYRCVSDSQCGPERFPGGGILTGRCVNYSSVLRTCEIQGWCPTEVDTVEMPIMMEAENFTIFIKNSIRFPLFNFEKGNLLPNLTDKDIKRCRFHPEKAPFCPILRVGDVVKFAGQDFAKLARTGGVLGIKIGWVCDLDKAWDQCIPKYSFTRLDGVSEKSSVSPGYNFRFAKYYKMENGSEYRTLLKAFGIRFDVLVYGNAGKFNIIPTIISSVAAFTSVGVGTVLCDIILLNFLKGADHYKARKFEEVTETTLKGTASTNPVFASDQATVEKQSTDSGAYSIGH
Nature of the assay: Inhibition of inward ion current elicited by ATP was determined at recombinant P2X3 receptor expressed in Xenopus oocytes. It counts as functional, cell-based, Oocyte.

As usually defined, the IC50 is the midpoint of a concentration-inhibition curve. As for `Cc1nc(/N=N/c2cc(S(=O)(=O)O)ccc2S(=O)(=O)O)c(COP(=O)(O)O)c(C=O)c1O` [ISOPPADS], the IC50 came to 74 nM.
